Source: patent US20010053351A1, “Inhibition of GSK-3 beta” (priority 1999, published 2001)

Experiments:
[1] = tested on: wild-type and GSK-3β-heterozygous cells; experiment: Cell death / viability (trypan blue) of wild-type and GSK-3β heterozygous embryonic fibroblast cell lines; format: cell-based, mouse; conditions: TNF-α 4, 10 or 50 ng/ml and cycloheximide 0.25 μg/ml, 24 hr
Source text: To probe the mechanism by which GSK-3β impacted TNF cytotoxicity, immortalized mouse embryonic fibroblast (MEF) cell lines from two wild-type ([…]), two GSK-3β heterozygous (+/−1 and +/−2) and two GSK-3β homozygous mutant (−/−1 and −/−2) embryos were derived from embryos. Immunoblotting of cell lysates from these cell lines confirmed the loss of GSK-3β expression in the two GSK-3β^−/− cell lines (FIG. 1C), whereas expression of proteins important for TNF signaling, such as TNF-R1 and IKKβ were equivalent.
(§1) We next examined the sensitivity of the lines to TNF-induced cell death. […] As a reference, TNF receptor-associated factor 2 (TRAF2) homozygous mutant MEFs were used in the same assay. TRAF2^−/− cell survival in our hands was consistent with previous reports (˜20% at 10 ng/ml TNF-α and 0.25 μg/ml cycloheximide)(Yeh et al. (1997) Immunity 7:715-725)
Figure (A) Twenty-four hours after the indicated TNF-α (4, 10 or 50 ng/ml) plus cycloheximide (0.25 μg/ml) treatment, viable cells were determined by negative staining with trypan blue. Viability is expressed normalized to untreated controls. Independently derived GSK-3β^+/+ EF cell clones are indicated by +/+1 and +/+2; GSK-3β^+/− by +/−1 and +/−2; and GSK-3β^−/− by −/−1, and −/−2. […] Cells were uniformly treated with cycloheximide (CHX, 0.25 μg/ml). […] (C) Sensitivity of GSK-3β^−/− EF cells to various apoptotic stimuli. […]

TRAF2−/− MEFs = experiment: TNF-induced cell death in TRAF2 homozygous mutant MEFs (reference); format: cell-based, mouse; conditions: 10 ng/ml TNF-α and 0.25 μg/ml cycloheximide
Description: as §1

Substance: TNF-α: tumor necrosis factor-α, apoptosis inducing ligand of TNFR1
- cell viability after TNF-α exposure [1]: relatively unaffected
- cell survival (TRAF2−/− MEFs): ~20%
